Source: patent US8679766B2, “E-cadherin as a biomarker of gastroesophageal reflux disease” (The University of North Carolina at Chapel Hill, priority 2009, dated 2014)

Tested on: cleavage of E-cad in rabbit EE
Assay: Acid-activated cleavage of E-cad in Ussing-chambered rabbit EE, W-blot for CTF with C-terminal antibody 4A2C7
Type: cell-based
Details: caspase 3 inhibitor 50 μM
Experimental: Further, the nature of the damage to E-cad was sought by exposing rabbit EE in U-chambers to luminal HCl, pH 1.1, for 30 min. […] Based on the size of the C-terminal fragment (CTF) of about 25 kD, referred to as CTF2, the site of cleavage was extracellular and close to the cell membrane, and so likely to be due to cleavage by a metalloprotease (MP) or γ-secretase, with cleavage by these two enzymes, often occurring sequentially (MP followed by γ-secretase), a process referred to as RIPping (72, 73).
Models of acid-activated cleavage of E-cad can be generated in two ways: 1) by luminal exposure to HCl, pH 1.1, for 30 min, and 2) by serosal exposure to HCl, pH 2.0, for 5 min. Serosal exposure is the most efficient means of cleavage because it mimics chronic acid exposure, recapitulating what occurs after luminal HCl, pH 1.1, breaks the barrier and acidifies the intercellular space and basolateral cell membranes. Following exposure, EE is washed in Ringer solution, pH 7.4, and placed in a Petri dish containing Dulbecco's Minimum Essential Medium (DMEM) with high glucose (4.5 g/l), supplemented with 2% FCS, 1 mM Na pyruvate, 2 mM/1 L-glutamine, 5 μg/ml insulin, 5 μg/ml transferrin, 0.01 μg/ml hydrocortisone and 0.01 μg/ml cholera toxin. […]

Z-DVED-FMK
acid-induced cleavage of E-cad: lack of effect
